Results on two substances are retold here after patent US5844099, “Cytokine antagonists” (Regeneron Pharmaceuticals, Inc., dated 1998).

The target of this assay is recombinant human IL-6 (human) (UniProt P05231).

Consider “gp130-Cγ1●IL-6Rα-κ (from UniProt P40189) (Fc fusion)”, for which the IL-6-dependent proliferation of XG-1 cells (MTT assay) (fold molar excess over IL-6) stood at 10.

On to “gp130-Fc●CNTFRα-Fc ligand trap (from UniProt P40189) (Fc fusion)”, for which the IL-6-dependent proliferation of XG-1 cells (fold molar excess over IL-6) turned out to be 1000.
